Results on one sequence are retold here after patent US8835378B2, “Multi-domain amphipathic helical peptides and methods of their use” (The United States of America as represented by the …, priority 2004, dated 2014).

In the data set the test system is red blood cells. The data set is described as follows: Red blood cell hemolysis assay. The data set is classed as cell-based. Conditions: 1 hour at 37° C. As for the experimental part:
FIG. 9 is a graph illustrating red blood cell lysis by the 37pA peptide and derivative peptides (1A, 2A, 3A, 4A, 5A, and 10A). Red blood cells were incubated with the indicated concentration of the peptides for 1 hour at 37° C. Results are expressed as the mean of triplicates±1 SD.
The 37pA peptide and all of the modified peptides were then tested for cytotoxicity, using a red blood cell hemolysis assay (FIG. 9). […] Approximately 25% of the red blood cells were lysed after 1 hour at the maximum dose tested (FIG. 9). Overall, the modified peptides containing the Ala substitutions were less cytotoxic, and the degree of cytotoxicity closely correlated with the number of Ala substitutions.

For the sequence “DWLKAFYDKVAEKLKEAFPDWLKAFYDKVA EKLKEAF [37pA, reference compound]”, the “hemolysis / cytotoxicity to red blood cells (in words)” value was “cytotoxic”. The “red blood cells lysed” value (maximum dose tested) is “Approximately 25%”.
